Data as given in patent US9085576B2 (AMGEN INC., priority 2013, dated 2015).

Chains of the proteins cited; added tags and fusions are not shown. Residues count along the entry.
UniProt P56817, 46-501: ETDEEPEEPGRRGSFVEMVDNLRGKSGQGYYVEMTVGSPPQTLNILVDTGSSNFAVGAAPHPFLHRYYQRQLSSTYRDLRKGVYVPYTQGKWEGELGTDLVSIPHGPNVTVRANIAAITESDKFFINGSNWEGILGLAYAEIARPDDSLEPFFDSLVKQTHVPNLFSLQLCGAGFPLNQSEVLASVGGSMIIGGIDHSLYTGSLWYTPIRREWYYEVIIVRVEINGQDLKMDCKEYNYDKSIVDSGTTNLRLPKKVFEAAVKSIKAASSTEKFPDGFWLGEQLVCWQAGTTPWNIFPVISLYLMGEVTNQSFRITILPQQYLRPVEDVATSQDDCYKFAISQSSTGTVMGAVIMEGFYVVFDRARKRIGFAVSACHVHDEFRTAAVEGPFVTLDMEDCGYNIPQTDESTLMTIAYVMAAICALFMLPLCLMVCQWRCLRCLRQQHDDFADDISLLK
UniProt P07339, 65-412, species assumed: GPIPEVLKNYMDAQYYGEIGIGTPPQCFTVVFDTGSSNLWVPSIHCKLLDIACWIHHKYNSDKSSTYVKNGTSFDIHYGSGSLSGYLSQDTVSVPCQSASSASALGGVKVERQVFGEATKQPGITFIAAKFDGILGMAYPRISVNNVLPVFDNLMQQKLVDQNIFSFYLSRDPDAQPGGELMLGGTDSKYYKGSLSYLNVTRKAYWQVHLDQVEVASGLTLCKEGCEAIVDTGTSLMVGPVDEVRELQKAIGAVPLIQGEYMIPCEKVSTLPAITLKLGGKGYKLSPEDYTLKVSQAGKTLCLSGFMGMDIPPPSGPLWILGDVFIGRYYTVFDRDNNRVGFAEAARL

Key:
[1] = biological target: Beta Secretase enzyme (BACE) (Homo sapiens (Human), UniProt P56817); assay: In vitro enzymatic BACE FRET assay; assay type: biochemical; conditions: read-out: BACE1 Enzyme assay IC50
BACE = BACE (Homo sapiens (Human), UniProt P56817); assay: In vitro BACE cell-based assay (Aβ40 in conditioned medium, sandwich ELISA)
Cathepsin D (Cat D) = Cathepsin D (Cat D) (Homo sapiens (Human), UniProt P07339); assay: In vitro enzymatic Cathepsin D (Cat D) FRET assay; assay type: biochemical; conditions: read-out: CatD IC50
Abeta 40 = assay: In vivo inhibition of beta-secretase: Abeta 40 reduction in CSF and brain of the rat; conditions: after 4 hrs

Compound | IC50 [1] [nM] | IC50 (BACE) [µM] | IC50 (Cathepsin D (Cat D)) [nM] | also measured
Cc1cc(OCC#CC(C)(C)O)cnc1C(=O)Nc1ccc(F)c(C2(C)N=C(N)O[C@H]3C[C@H]32)c1 (mixture of isomers) [Example 29, N-(3-([1(R,S),5(S,R),6(R,S)]-3-amino-5-methyl-2-oxa-4-azabicyclo[4.1.0]hept-3-en-5-yl)-4-fluorophenyl)-5-((4-hydroxy-4-methylpent-2-yn-1-yl)oxy)-3-methylpicolinamide] | 207 | 0.656 | – | –
N#Cc1cnc2c(c1)CC[C@H]2Nc1ccc(F)c([C@@]2(C(F)F)N=C(N)O[C@@H]3C[C@@H]32)c1 [Example 401, (R)-7-((3-((1R,5S,6R)-3-amino-5-(difluoromethyl)-2-oxa-4-azabicyclo[4.1.0]hept-3-en-5-yl)-4-fluorophenyl)amino)-6,7-dihydro-5H-cyclopenta[b]pyridine-3-carbonitrile] | – | – | 555000 | –
NC1=N[C@](CF)(c2cc(NCc3nn(C(F)F)cc3Cl)ccc2F)[C@H]2C[C@H]2O1 [Example 373, (1R,5S,6R)-5-(5-(((4-chloro-1-(difluoromethyl)-1H-pyrazol-3-yl)methyl)amino)-2-fluorophenyl)-5-(fluoromethyl)-2-oxa-4-azabicyclo[4.1.0]hept-3-en-3-amine] | 159 | 0.0318 | 234000 | –
Cc1cc(NC(=O)c2ccc(Cl)cn2)cc([C@@]2(C(F)F)N=C(N)O[C@@H]3C[C@@H]32)c1F (racemic) [Example 30, N-(3-([(1R,S),(5S,R),(6R,S)]-3-amino-5-(difluoromethyl)-2-oxa-4-azabicyclo[4.1.0]hept-3-en-5-yl)-4-fluoro-5-methylphenyl)-5-chloropicolinamide] | 43.2 | – | – | –
NC1=NC(c2nc(NC(=O)c3ccc(Cl)cn3)ccc2F)(C(F)F)[C@H]2C[C@H]2O1 (mixture of isomers) [Example 321, rac N-(6-((1R,5S,6R)-3-amino-5-(difluoromethyl)-2-oxa-4-azabicyclo[4.1.0]hept-3-en-5-yl)-5-fluoropyridin-2-yl)-5-chloropicolinamide] | – | 0.295 | 212000 | –
N#Cc1ccc(C(=O)Nc2cc(F)c(F)c([C@@]3(C(F)F)N=C(N)O[C@@H]4C[C@@H]43)c2)nc1 [Example 113, N-(3-((1R,5S,6R)-3-amino-5-(difluoromethyl)-2-oxa-4-azabicyclo[4.1.0]hept-3-en-5-yl)-4,5-difluorophenyl)-5-cyanopicolinamide] | – | – | – | % reduction of rat CSF levels at 10 pmk (Abeta 40; Abeta 40 in rat CSF, 10 mpk): 65%; % reduction of rat brain levels at 10 mpk (Abeta 40; Abeta 40 in rat brain): 58%
Cc1cc(NC(=O)c2ccc(Cl)cn2)cc([C@@]2(C(F)F)N=C(N)O[C@@H]3C[C@@H]32)c1F [Example 123, N-(3-((1R,5S,6R)-3-amino-5-(difluoromethyl)-2-oxa-4-azabicyclo[4.1.0]hept-3-en-5-yl)-4-fluoro-5-methylphenyl)-5-chloropicolinamide] | 30.5 | – | – | –
(R)-4-((3-((1R,5S,6R)-3-amino-5-(difluoromethyl)-2-oxa-4-azabicyclo[4.1.0]hept-3-en-5-yl)-4-fluorophenyl)amino)chroman-7-carbonitrile and (S)-4-((3-((1R,5S,6R)-3-amino-5-(difluoromethyl)-2-oxa-4-azabicyclo[4.1.0]hept-3-en-5-yl)-4-fluorophenyl)amino)chroman-7-carbonitrile [Example 383] | – | – | 206000 | –
Cc1cc(NC(=O)c2ccc(Cl)cn2)cc([C@]2(C(F)F)N=C(N)O[C@H]3C[C@H]32)c1F [Example 124, N-(3-((1 S,5R,6S)-3-amino-5-(difluoromethyl)-2-oxa-4-azabicyclo[4.1.0]hept-3-en-5-yl)-4-fluoro-5-methylphenyl)-5-chloropicolinamide] | 3530 | – | – | –
